Measurements taken from US7465544B2, “Synthetic cofactor analogs of S-adenosylmethionine as ligatable probes of biological methylation and methods for their use” (Wisconsin Alumni Research Foundation, priority 2006, dated 2008).
Structures can show the parent of a compound that is named as a salt.

Chains of the proteins cited; added tags and fusions are not shown. Lines headed by an entry give the natural chain unless they say otherwise; changes in a name come on top.
UniProt P14385: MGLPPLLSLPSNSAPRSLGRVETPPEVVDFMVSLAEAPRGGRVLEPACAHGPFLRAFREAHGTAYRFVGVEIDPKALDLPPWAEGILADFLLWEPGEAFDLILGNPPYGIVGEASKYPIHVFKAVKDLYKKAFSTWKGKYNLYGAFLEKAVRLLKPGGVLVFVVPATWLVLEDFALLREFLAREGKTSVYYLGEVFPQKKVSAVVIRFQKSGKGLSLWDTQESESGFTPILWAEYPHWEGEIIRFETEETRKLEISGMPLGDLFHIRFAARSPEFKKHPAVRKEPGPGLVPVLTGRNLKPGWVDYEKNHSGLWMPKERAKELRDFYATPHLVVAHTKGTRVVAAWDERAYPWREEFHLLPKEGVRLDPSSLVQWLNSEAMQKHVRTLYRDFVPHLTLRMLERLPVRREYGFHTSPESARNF
UniProt P00472: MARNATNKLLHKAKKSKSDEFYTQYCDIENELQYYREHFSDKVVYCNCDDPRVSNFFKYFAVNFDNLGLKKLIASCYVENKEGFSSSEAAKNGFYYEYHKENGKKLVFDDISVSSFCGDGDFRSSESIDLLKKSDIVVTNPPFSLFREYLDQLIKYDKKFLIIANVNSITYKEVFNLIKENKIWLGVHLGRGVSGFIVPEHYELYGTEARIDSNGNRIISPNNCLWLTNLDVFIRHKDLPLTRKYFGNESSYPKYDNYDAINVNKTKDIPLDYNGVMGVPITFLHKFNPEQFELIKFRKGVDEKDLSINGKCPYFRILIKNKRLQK
UniProt P05102: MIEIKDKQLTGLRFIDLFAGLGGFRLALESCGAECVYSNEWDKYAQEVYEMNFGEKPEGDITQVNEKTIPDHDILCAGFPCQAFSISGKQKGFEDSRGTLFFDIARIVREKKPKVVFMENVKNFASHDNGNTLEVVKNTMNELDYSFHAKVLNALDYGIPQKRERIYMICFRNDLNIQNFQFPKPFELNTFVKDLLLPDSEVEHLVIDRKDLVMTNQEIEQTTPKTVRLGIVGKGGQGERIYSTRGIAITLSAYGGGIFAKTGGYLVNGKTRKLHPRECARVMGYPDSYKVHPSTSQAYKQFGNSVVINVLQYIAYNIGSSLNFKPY
UniProt P15840: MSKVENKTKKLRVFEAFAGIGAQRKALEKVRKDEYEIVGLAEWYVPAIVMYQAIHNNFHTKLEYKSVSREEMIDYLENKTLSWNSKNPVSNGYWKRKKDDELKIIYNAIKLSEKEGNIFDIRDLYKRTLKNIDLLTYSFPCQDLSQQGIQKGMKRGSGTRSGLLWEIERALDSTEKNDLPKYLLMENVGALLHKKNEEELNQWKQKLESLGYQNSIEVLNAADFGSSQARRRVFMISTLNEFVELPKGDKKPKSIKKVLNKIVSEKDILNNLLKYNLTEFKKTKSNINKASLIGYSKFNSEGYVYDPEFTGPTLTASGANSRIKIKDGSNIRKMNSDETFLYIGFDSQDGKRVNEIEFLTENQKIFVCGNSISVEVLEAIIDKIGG

What was measured:
[1] = system: duplex 6 (duplex 5 modified with 24a by M.TaqI); experiment: Cu(I)-mediated Haber-Weiss DNA strand scission, DNA modified with M.TaqI; details: 20 μM CuSO4, 5.8 mM MPA, relative to all scission products observed
[2] = system: duplex 7 (duplex 5 modified with 24a by M.HhaI); experiment: Cu(I)-mediated Haber-Weiss DNA strand scission, DNA modified with M.HhaI; details: after ligation and copper treatment; 20 μM CuSO4, 5.8 mM MPA, pH 8, 2 hours 37° C.
[3] = molecular target: M.TaqI (Thermus aquaticus, UniProt P14385); experiment: M.TaqI-dependent alkylation of synthetic oligonucleotide duplex (DPAGE); format: biochemical; details: 0.5 μM duplex, ~1.2 μM M.TaqI, 37° C., margin of error ±3%
[4] = molecular target: M.EcoRI (Escherichia coli, UniProt P00472); experiment: M.EcoRI-dependent alkylation of synthetic oligonucleotide duplex (DPAGE); format: biochemical; details: 0.5 μM duplex, 0.6 μM M.EcoRI, 37° C., margin of error ±3%
[5] = molecular target: M.HhaI (Haemophilus parahaemolyticus, UniProt P05102); experiment: M.HhaI-dependent alkylation of synthetic oligonucleotide duplex (DPAGE); format: biochemical; details: 0.5 μM duplex, 0.6 μM M.HhaI, 37° C., margin of error ±3%
[6] = molecular target: M.SssI (Spiroplasma monobiae, UniProt P15840); experiment: M.SssI-dependent alkylation of synthetic oligonucleotide duplex (DPAGE); format: biochemical; details: 0.5 μM duplex, 0.6 μM M.SssI, 37° C., margin of error ±3%
[7] = system: duplex DNA; experiment: MTase-independent (non-specific) DNA alkylation controls; details: 5 μM 67 without MTase; substrates of all four enzymes; margin of error ±3%
[8] = after ligation with OP-phosphine, pH 8, 2 hours 37° C.

[N-]=[N+]=Nc1nc2c(N)ncnc2n1[C@@H]1O[C@H](CN2CC2)C(O)[C@@H]1O (some centres unmarked) [24a, 8-azido-5′-aziridino-5′-deoxyadenosine]
yield of major scission product at T ([1]; T immediately 5′ of the recognition site): 15%
yield of major scission product at A [1, 8]: 12%
yield of major scission product at G [1, 8]: 13%
scission yield of major scission product at C [2]: 15%
scission yield of major scission product at G (first listed) [2]: 16%
scission yield of major scission product at G (second listed) [2]: 13%

Nc1ncnc2c1ncn2[C@@H]1O[C@H](CN(CCI)CC[C@H](N)C(=O)O)C(O)[C@@H]1O (some centres unmarked) [compound 67, 5′-(diaminobutyric acid)-N-iodoethyl-5′-deoxyadenosine ammonium hydrochloride]
Percent yield of DNA alkylation ([3]; lane 2: 0.1 μM 67): 6%
Percent yield of DNA alkylation ([3]; lane 3: 0.5 μM 67): 9%
Percent yield of DNA alkylation ([3]; lane 4: 1.0 μM 67): 13%
Percent yield of DNA alkylation ([3]; lane 5: 5 μM 67): 12%
Percent yield of DNA alkylation ([4]; lane 2: 0.1 μM 67): 7%
Percent yield of DNA alkylation ([4]; lane 3: 0.5 μM 67): 20%
Percent yield of DNA alkylation ([4]; lane 4: 1.0 μM 67): 28%
Percent yield of DNA alkylation ([4]; lane 5: 5 μM 67): 53%
Percent yield of DNA alkylation ([5]; lane 2: 0.1 μM 67): 15%
Percent yield of DNA alkylation ([5]; lane 3: 0.5 μM 67): 38%
Percent yield of DNA alkylation ([5]; lane 4: 1.0 μM 67): 41%
Percent yield of DNA alkylation ([5]; lane 5: 5 μM 67): 42%
Percent yield of DNA alkylation ([6]; lane 2: 0.1 μM 67): 20%
Percent yield of DNA alkylation ([6]; lane 3: 0.5 μM 67): 25%
Percent yield of DNA alkylation ([6]; lane 4: 1.0 μM 67): 25%
Percent yield of DNA alkylation ([6]; lane 5: 5 μM 67): 26%
yields of MTase-independent alkylation [7]: < 1%
